{"source": "patent US20130324439A1", "about": "“Elastic Modulus-modified MicroEnvironment microArrays (eMEArrays) and Uses Thereof” (The Regents of the University of California, priority 2012, published 2013)", "tested_on": "HER2+ breast cancer cell line HCC1569", "assay": "EdU incorporation (DNA synthesis) of HCC1569 on 2D tissue culture plastic, PA gels of tuned elastic modulus or 3D Matrigel", "data": [{"compound": "O=S(=O)(c1cccc2c(I)cccc12)N1CCCNCC1", "note": "[ML-7]", "values": [{"measurement": "Effect of lapatinib and ML-7 together on cells atop 2D TC plastic or compliant PA gels", "value": "synergistic and toxic effect"}]}]}
